Values quoted from earlier work in patent US20080139664A1, “ANTI-GLYCATION AGENTS FOR PREVENTING AGE-, DIABETES-, AND SMOKING-RELATED COMPLICATIONS” (NATIONAL RESEARCH COUNCIL OF CANADA, priority 2001, published 2008).
Like-named read-outs stand apart in the source and are kept apart here.

Conditions: rabbit eye, cited from earlier work
[1] = 6 hours after 50 μL drop of 0.05% dipivefrin

For D,L-Epinephrine, the “concentration of D,L-epinephrine in choroid & retina” value (“concentration of D,L-epinephrine” for short) (30 min after 50 μL eye drop of 0.05% dipivefrin) is listed as 2960 ± 1110 nM, the “concentration of D,L-epinephrine” value (1 hour after 50 μL eye drop of 0.05% dipivefrin) is listed as 3760 ± 370 nM and the “concentration of D,L-epinephrine” value (3 hours after 50 μL eye drop of 0.05% dipivefrin) is listed as 2190 ± 390 nM. The “concentration of epinephrine in aqueous humor” value [1] was 280 ± 80 nM, the “concentration of epinephrine in ciliary body” value [1] was 3710 ± 670 nM and the “concentration of epinephrine in cornea” value [1] was 2780 ± 390 nM. For the same substance, the “concentration of epinephrine in iris” value [1] was 9050 ± 1680 nM, the “concentration of epinephrine in lens” value [1] was < 260 nM and the “concentration of epinephrine in sclera” value [1] was 2660 ± 570 nM. For the same substance, the “concentration of epinephrine in vitreous humors” value [1] was < 26 nM and the “concentration of D,L-epinephrine” value (6 hours after 50 μL eye drop of 0.05% dipivefrin) was 1910 ± 1110 nM.
